Values quoted from earlier work as cited in US10562850B2, “Human plasma kallikrein inhibitors” (priority 2015, dated 2020).

Tested on: lipopolysaccharide (LPS)- or bacterial-induced sepsis in animals
Conditions: cited from earlier work

Q: Which “vascular permeability in multiple organs and lesions” value does the source give for “H-D-Pro-Phe-Arg-chloromethylketone [H-D-Pro-Phe-Arg-chloromethylketone (CMK)]” here?
A: reduce vascular permeability in multiple organs and reduce lesions
